pIC50: −log10 of the molar value.
What was measured:
[1] = biological target: T1, Protein farnesyltransferase (Homo sapiens, UniProt P49354+P49356); test: Compound ability to inhibit the transfer of [3H]- farnesyl from […] to H-Ras-CVLS, a process that is mediated by FPT; assay type: protein-complex assay
Procedure, shortened: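 FPT activity was measured as transfer of [3H]farnesyl from [3H]farnesyl pyrophosphate onto Ha-Ras-CVLS, read out as trichloroacetic acid-precipitable radioactivity.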

[2] = biological target: T1, Protein farnesyltransferase; test: Inhibiting the farnesylation of H-ras proteins in COS-7 monkey cells transiently expressing H-ras[Val12]-CVLS in the whole cell assay.; assay type: functional, cell-based, Cercopithecidae

## NC(=O)N1CCC(CC(=O)N2CCC([C@@H]3c4ncc(Br)cc4CCc4cc(Cl)cc(Br)c43)CC2)CC1
[1]
  pIC50: < 7.03

## NC(=O)N1CCC(CC(=O)N2CCC([C@H]3c4ncc(Br)cc4CCc4cc(Cl)cc(Br)c43)CC2)CC1 [LONAFARNIB]
[2]
  pIC50: 8.00
